Experiment [1] relates to concatenated TREK-1-TWIK-1 heterodimeric channel. The experiment can be described thus: Whole-cell currents in COS-7 cells expressing concatenated TWIK-1-TREK-1. Type of experiment: cell-based, mouse. Conditions: +50 mV, 10 µM spadin. The procedure: cDNAs encoding for full-length mouse TREK-1 (GenBank accession no. NM_010607) and mouse TWIK-1 (NM_008430) were obtained by using an RT–PCR based gateway cloning (ThermoFisher, Waltham, MA, USA). TWIK-1 K274E mutant was generated using full-length cDNA as templates via the EZchange site-directed mutagenesis kit (Enzynomics, Daejeon, Korea). All constructs were cloned into pDEST-IRES2-GFP vectors by gateway cloning. […]
Current–voltage (I–V) curves were recorded from COS-7 cells expressing TWIK-1 K274E, TREK-1 or concatenated TWIK-1-TREK-1-IRES2-GFP. […] The I–V relations were measured by applying 1-s ramp pulses (from −150 mV to +50 mV) from a holding potential of −60 mV. […] Currents were analyzed with Clampfit software (Axon instruments, Union City, CA, USA). […]
(§1) All data are presented as means ± standard error of the mean (s.e.m). The significance of data for comparison was assessed by Student’s t-test (paired t-test) or one-way ANOVA followed by Turkey’s post hoc test, and significance levels are given as: n.s: not significant, * p < 0.05, ** p < 0.01, *** p < 0.001, and **** p < 0.0001. […]

The test system of experiment [2] is astrocytic passive conductance in mouse hippocampal slices. The experiment can be described thus: Astrocytic passive conductance in hippocampal slices after lentiviral shRNA knockdown. Format: cell-based, mouse (C57BL/6). Particulars: 10 µM spadin.
Text: For gene silencing in cultured astrocytes and mouse brain slices, TWIK-1 shRNA and TREK-1 shRNA were constructed and the knockdown efficiencies of these shRNAs were validated as described previously. Briefly, the target region of shRNA was as follows: mouse TWIK-1: 5′-[…]-3′; mouse TREK-1: 5′-[…]-3′. These target sequences were inserted into lentiviral pSicoR vector (Addgene okasnud #11579) and Scrambled shRNA-containing pSicoR construct was used as a control. These pSicoR vectors were transfected into primary cultured astrocytes to perform electrophysiological experiments. Transfected primary astrocytes were easily detected under a fluorescence microscope since GFP fluorescent protein is expressed from these pSicoR vectors.
Using lentiviral pSicoR vectors expressing validated mouse shRNAs against TWIK-1 and TREK- 1, high-titer lentiviruses were produced by KIST virus facility (Korea) as previously described. Lentiviruses were injected into hippocampal CA1 region (AP: 0.17, ML: 0.17, DV: 0.19) of 7–8 week-old wild-type C57BL/6 mice. […]
as §1

A further experiment concerns TRAAK. Conditions: cited from earlier work. The text has this: (§2) It has been reported that spadin is highly specific for the TREK-1 channel, and that other TREK family members, such as TREK-2 and TRAAK homodimer channels, are not sensitive to spadin [36, 37]. […] Therefore, we proposed two possibilities to explain how the TWIK-1 channel is affected by spadin in astrocytes. First, the TWIK-1 channel may be regulated by spadin in a direct manner, similar to the TREK-1 channel. […] The activity of TWIK-1 homodimeric channels was not modulated by spadin, but concatenated TWIK-1-TREK-1 heterodimeric channels were inhibited (Figure 5). Since K2P heterodimeric channels are known to be regulated by regulators specific only for single subunit isoforms, even if the TWIK ...

The next experiment has as its system TREK-2. Particulars: cited from earlier work.
Text: as §2

The subject of experiment [3] is animal behavioral models of depression. Conditions: cited from earlier work. The text has this:
It is well known that TREK-1 activity is modulated by multiple signals such as mechanostretching, heat, pH changes, polyunsaturated fatty acids, and Gq or Gs-induced phosphorylation. […] However, in the present study, we clearly demonstrat ...

For a further experiment, the system named is mouse TREK-1. More on the design: method as in PMID 20405001, PMID 22022421, PMID 32317978. Particulars: low concentrations; cited from earlier work.
In experiment [4] the test system is TREK-1 in hippocampal pyramidal neurons in TREK-1 KO mice. Particulars: cited from earlier work. An excerpt: Based on our results and other reports regarding the inhibitory effects of spadin on TREK-1 homodimeric and TREK-1 ...

Consider `CC[C@H](C)[C@H](NC(=O)[C@@H]1CCCN1C(=O)CNC(=O)[C@H](CO)NC(=O)[C@H](Cc1c[nH]c2ccccc12)NC(=O)[C@H](CCCNC(=N)N)NC(=O)[C@@H]1CCCN1C(=O)[C@H](CC(C)C)NC(=O)[C@@H]1CCCN1C(=O)[C@H](C)NC(=O)[C@@H](N)Cc1ccc(O)cc1)C(=O)NCC(=O)N[C@H](C(=O)N[C@@H](CO)C(=O)N[C@@H](Cc1c[nH]c2ccccc12)C(=O)NCC(=O)N[C@@H](CC(C)C)C(=O)N[C@@H](CCCNC(=N)N)C(=O)O)C(C)C` [spadin], for which the “K^+ conductance of concatenated heterodimeric channel with spadin” value in experiment [1] is “largely inhibited”. Also, the figures for the “passive conductance with spadin” value in experiment [2] (Lenti-ScRNA infected astrocytes) and in experiment [2] (Lenti-TWIK-1 shRNA or Lenti-TREK-1 shRNA infected astrocytes) were “drastically decreased” and “not further affected”, respectively. Also, the “sensitivity of TRAAK homodimer channels” value with TRAAK is given as “not sensitive”. In addition, the “effect on TRAAK” value in the experiment with TRAAK (heterologous systems) is recorded as “does not affect”. Moreover, in the experiment with TREK-2, the “sensitivity of TREK-2 homodimer channels” value was “not sensitive”. Further, in the experiment on TREK-2 (heterologous systems), the “effect on TREK-2” value is “does not affect”. The depression phenotypes entry in experiment [3] (animal behavioral models) is listed as “alleviates depression phenotypes”. The antidepressant effects result in experiment [3] (mice treated with spadin) is “antidepressant effects have been reported”. In the experiment with mouse TREK-1, the “inhibition of mouse TREK-1” value is given as “inhibited by spadin at low concentrations”. For the same compound, the “inhibitory effect on TREK-1 in hippocampal pyramidal neurons” value in experiment [4] was “inhibitory effects of spadin on TREK-1 were confirmed”.

These data come from PMC7765948, “Spadin Modulates Astrocytic Passive Conductance via Inhibition of TWIK-1/TREK-1 Heterodimeric Channels” (International Journal of Molecular Sciences, 2020).
